# The entries are a selection whose mix differs from that of the whole data set. Active and inactive are the calls of the source.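 The calls were made as follows: active = inhibition above a set limit, near 3 SD of compounds lacking own fluorescence (cut at about 54% in these data); inactive = the rest.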
# System: beta-arrestin 1 C-terminal peptide binding to AP2 beta2-adaptin appendage (human)
# Experiment: blockers of arrestin peptide association with AP2 adaptin – biochemical, GPCR trafficking, flow cytometry, primary screen (AID 504490);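 also: plate controls were DMSO wells for no effect and 5 µM unlabelled arrestin peptide for full effect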
# Conditions: FITC-arrestin peptide / GST-AP2 beads, at 10 µM, hits give high values, AP2 beta2 appendage carries R879A mutation
row,Structure (SMILES),inhibition
1,CCC(C)N(CC(C)C)C(=S)SC(NC(C)=O)C(Cl)(Cl)Cl (stereo not given),inactive: -2.12%
2,CCOC(=O)c1ccc(NC(=O)C(C)(CCl)SC)cc1 (stereo not given),inactive: -4.17%
3,O=C(OC1CN2CCC1CC2)c1cccc([N+](=O)[O-])c1 (stereo not given),inactive: -4.34%
4,O=C(Nc1ccncc1[N+](=O)[O-])c1ccc([N+](=O)[O-])cc1[N+](=O)[O-],inactive: 6.68%
5,O=C(COc1ccccc1)OC1CN2CCC1CC2 (stereo not given),inactive: 9.6%
6,COP1(=S)c2c(C)nn(CCC#N)c2N=C(c2ccc(F)cc2)N1C (stereo not given),inactive: 9.01%
7,O=[N+]([O-])c1ccc(Nc2ccc(Oc3ccc([N+](=O)[O-])cc3[N+](=O)[O-])cc2)c([N+](=O)[O-])c1,inactive: -20.7%
8,Cc1cc(SC(NC=O)C(Cl)(Cl)Cl)ncn1 (stereo not given),inactive: 3.6%
9,O=P(Nc1ccccn1)(c1cccc2ccccc12)c1cccc2ccccc12,inactive: 9.56%
10,CCOC(=O)Nc1cccc([As](=O)(O)O)c1,inactive: 9.12%
11,Cc1cc(SC(NC(=O)c2ccccc2)C(Cl)(Cl)Cl)nc(C(C)C)n1 (stereo not given),inactive: 8.23%
12,CCCCOc1ccc(C(=O)NCC2(N3CCCCC3)CCCCC2)cc1OC,inactive: 0.66%
13,CC1CCNP(=O)(N(CCCl)CCCl)O1 (stereo not given),inactive: -12.5%
14,CCOC(=O)Nc1ccc([As](=O)(O)O)c(O)c1,inactive: -11.1%
15,O=[N+]([O-])c1cc([N+](=O)[O-])c(-c2ccn[nH]2)s1,inactive: 47.9%
16,CC(C)NC(=O)NP(=O)(Oc1ccccc1)Oc1ccccc1,inactive: 7.49%
17,CCN(CC)C(=S)SC(NC=O)C(Cl)(Cl)Cl (stereo not given),inactive: 5.92%
18,O=C(OC1CN2CCC1CC2)c1cccc2[nH]cnc12 (stereo not given),inactive: 22.4%
19,COC(=O)C1(C)COP(=O)(N2CCCCCC2)OC1 (stereo not given),inactive: -4.5%
20,CC(C)c1ccc(OP(=O)(Nc2ccccn2)Oc2ccccc2F)cc1 (stereo not given),inactive: 14.2%
21,ClCCSc1nnc(-c2cccnc2)o1,inactive: -1.24%
22,Cc1ccc2nc3c(c(C)c2c1)CC(C(Cl)Cl)S3 (stereo not given),inactive: 1.52%
23,Cc1ccc(OP(=O)(Nc2ccc([N+](=O)[O-])cn2)Oc2ccc(C)cc2)cc1,inactive: 26.7%
24,O=[N+]([O-])c1ccc(-c2cc([N+](=O)[O-])c(O)c([N+](=O)[O-])c2)cc1,inactive: 6.5%
25,COc1cc(C(=O)NCC2(N3CCOCC3)CCCCC2)ccc1OCC(C)C,inactive: 0.14%

row,Structure (SMILES),inhibition
1,C[As](=O)(O)c1cccc(C(=O)O)c1,inactive: -2.18%
2,O=[As](O)(c1ccc(O)cc1)c1ccccc1O,inactive: -11.4%
3,COc1ccc(N/C(=N/P(=O)(N2CCOCC2)N2CCOCC2)N2CCOCC2)cc1,inactive: 20.9%
4,O=[N+]([O-])c1cc(Oc2ccc([N+](=O)[O-])cc2C(F)(F)F)cc([N+](=O)[O-])c1,inactive: 19.2%
5,COc1cc(I)ccc1[As](=O)(O)O,inactive: 25%
6,COc1ccc2nc(NP(=O)(c3ccccc3)c3ccccc3)sc2c1,inactive: 9.52%
7,O=P1(N(CCCl)CCCl)Nc2ccccc2N1,inactive: 34%
8,O=P1(N(CCCl)CCCl)OCCCN1CCCl (stereo not given),inactive: 3.78%
9,Cc1cc(=O)[nH]c(N[N+](=O)[O-])n1,inactive: -0.05%
10,O=C(OC1CN2CCC1CC2)C12CC3CC(CC(C3)C1)C2 (stereo not given),inactive: -5.5%
11,Cc1c2c(nc3ccccc13)SC(C(Cl)Cl)C2 (stereo not given),inactive: -2.19%
12,CCOP(=O)(Nc1cccc2ccccc12)OCC,inactive: 7.32%
13,COc1cc(C2NCCC3(OCCO3)C2(C)C)cc(OC)c1OC (stereo not given),inactive: 12.3%
14,CCCOP(=S)(Nc1nc(N)cc(=O)[nH]1)OCCC,inactive: 8.96%
15,Cc1ccc(NCCc2c([N+](=O)[O-])cc([N+](=O)[O-])cc2[N+](=O)[O-])cc1,inactive: 19.5%
16,Nc1cccc2c([As](=O)(O)O)cccc12,inactive: -0.01%
17,Cc1cccc(OCC(=O)OC2CN3CCC2CC3)c1 (stereo not given),inactive: 6.17%
18,O=[As](O)(c1cccc(O)c1)c1cccc(O)c1,inactive: 34.1%
19,CS(=O)(=O)c1ccc(Cl)c(NC(=O)COC(=O)C(O)(c2ccccc2)c2ccccc2)c1,inactive: -6.91%
20,O=[As](O)(O)c1cccnc1,inactive: 2.33%
21,COc1cc(C(=O)NCC2(N3CCOCC3)CCCCC2)cc(Cl)c1OC(C)C,inactive: 14%
22,O=C(OC1CN2CCC1CC2)c1ccc(Cl)cc1 (stereo not given),inactive: 2.57%
23,CN(C(=O)Cc1ccc(Cl)c(Cl)c1)[C@H]1CC[C@@]2(CCCO2)C[C@@H]1N1CCCC1,inactive: -9.72%
24,O=[N+]([O-])c1ccc2c(c1)nnn2O,inactive: -5.18%
25,CN(C)C(=O)c1cc([N+](=O)[O-])cc2c1-c1c(cc([N+](=O)[O-])cc1[N+](=O)[O-])C2=O,inactive: -1.23%

row,Structure (SMILES),inhibition
1,CCOP1(=S)c2c(C)nn(CCC#N)c2N=C(c2ccc(F)cc2)N1C (stereo not given),inactive: 10.2%
2,CN(C(=O)Cc1ccccc1)[C@@H]1CC[C@]2(CCCO2)C[C@H]1N1CCCC1,inactive: -1.25%
3,N#CCCN(C(=O)COC(=O)C(O)(c1ccccc1)c1ccccc1)c1ccc(F)cc1,inactive: -3.31%
4,NC(=O)Nc1ccc([As](=O)(O)O)cc1,inactive: -0.07%
5,O=C(O)COc1ccc([As](=O)(O)O)cc1[N+](=O)[O-],inactive: -4.76%
6,Nc1ccccc1[As](=O)(O)c1ccccc1,inactive: 36.5%
7,CS(=O)(=O)c1cc([N+](=O)[O-])c2no[n+]([O-])c2c1,inactive: 36%
8,O=P(Nc1nccs1)(Oc1ccccc1)Oc1ccccc1,inactive: 13.4%
9,O=P(Nc1nccs1)(c1ccccc1)c1nc2ccccc2s1 (stereo not given),inactive: -3.66%
10,CCOP1(=S)c2c(C)nn(CCC#N)c2N=C(c2ccccc2F)N1C (stereo not given),inactive: 5.78%
11,Cc1ccc(OCC(=O)OC2CN3CCC2CC3)cc1 (stereo not given),inactive: 8.67%
12,O=[As](O)(c1cccs1)c1cccs1,inactive: 32.4%
13,NS(=O)(=O)c1cccc(NC(=O)COC(=O)C(O)(c2ccccc2)c2ccccc2)c1,inactive: -17.3%
14,O=P1(Nc2ccc(Br)cn2)COc2ccccc2OC1,inactive: -2.57%
15,Nc1cccc([As](=O)(O)c2ccccc2)c1,inactive: -4.72%
16,O=P1(Nc2ncccn2)COc2ccccc2OC1,inactive: -1.77%
17,CCCC1OP(=O)(Nc2ccccc2)OCC1CC (stereo not given),inactive: 1.83%
18,O=C(/C=C/c1ccccc1)OC1CN2CCC1CC2 (stereo not given),inactive: -12.3%
19,CN(C)C1(CNC(=O)c2ccc(S(C)(=O)=O)cc2)CCCCC1,inactive: 28.4%
20,Cc1ccc(C(=O)OC2CN3CCC2CC3)cc1 (stereo not given),inactive: 34.7%
21,CC1CCC(C(C)C)C(OP(=O)(Nc2ccccn2)c2ccccc2)C1 (stereo not given),inactive: 34.9%
22,Cc1nn(-c2ccccc2)c2c1P(=O)(N1CCOCC1)N(C)C(c1ccccc1)=N2 (stereo not given),inactive: -3.48%
23,CC1(CBr)Cn2c(nc3ccccc3c2=O)S1 (stereo not given),inactive: -5.01%
24,CN(C(=O)Cc1ccc(Cl)c(Cl)c1)[C@@H]1CCCC[C@H]1N1CCCC1,inactive: -5.26%
25,CC(C)/C=N\N=C(\N)N[N+](=O)[O-],inactive: 2.11%

row,Structure (SMILES),inhibition
1,COc1ccccc1CNC(=O)COC(=O)C(O)(c1ccccc1)c1ccccc1,inactive: 5.67%
2,CC(C)(C)C(=O)NC(Sc1ncccn1)C(Cl)(Cl)Cl (stereo not given),inactive: 0.28%
3,Clc1n[nH]nc1-c1nn[nH][15n]1,inactive: 19.2%
4,CCOP(=O)(Nc1ccc(C)cn1)OCC,inactive: -2.95%
5,CCOP(=O)(NC(=NC(C)c1ccccc1)NC(C)c1ccccc1)OCC (stereo not given),inactive: 13.9%
6,CCC1=CC2Cc3nc4ccc(Cl)cc4c(N)c3C(C1)C2 (stereo not given),inactive: -0.1%
7,O=P1(Nc2ccccn2)COc2ccccc2OC1,inactive: 0.81%
8,c1nnnn1CCn1cnnn1,inactive: -2.81%
9,O=P(Nc1nccs1)(c1ccccc1)c1ccccc1,inactive: 0.44%
10,CC(C)C(=O)NC(Sc1ccccc1)C(Cl)(Cl)Cl (stereo not given),inactive: 4.25%
11,C(Cc1nn[nH]n1)Cc1nn[nH]n1,inactive: 14.3%
12,Nc1ccc([As](=O)(O)c2ccc([N+](=O)[O-])cc2)cc1,inactive: -1.27%
13,O=C(OC1CN2CCC1CC2)c1cccc(Cl)c1 (stereo not given),inactive: 2.96%
14,CC(=O)NC(SC(=S)N(C)C)C(Cl)(Cl)Cl (stereo not given),inactive: 36.5%
15,O=[N+]([O-])c1ncn(CCn2cnc([N+](=O)[O-])n2)n1,inactive: 14.8%
16,O=[N+]([O-])c1ccc(O)c(/C=N/Nc2ccc([N+](=O)[O-])cc2[N+](=O)[O-])c1,inactive: 4.36%
17,O=[As](O)(c1ccccc1)c1ccc(O)cc1,inactive: 32.7%
18,C[C@H]1OP(=O)(Oc2ccccc2)[C@H](O)[C@H](O)[C@H]1N=[N+]=[N-] (stereo not given in full),inactive: -4.8%
19,O=P(Nc1nc2ccccc2s1)(c1ccccc1)c1ccccc1,inactive: 1.72%
20,COc1ccc(N)c([N+](=O)[O-])c1[N+](=O)[O-],inactive: -7.04%
21,CN(C)C1(CNC(=O)c2ccc(Cl)c(S(N)(=O)=O)c2)CCCCC1,inactive: -1.72%
22,O=P(Nc1ccccn1)(c1ccc(Br)cc1)c1ccc(Br)cc1,inactive: -9.47%
23,O=c1c2cc([N+](=O)[O-])ccc2[nH]c2c([N+](=O)[O-])cc([N+](=O)[O-])cc12,inactive: -22.6%
24,CN(C)C(=O)Oc1noc2ccccc12,inactive: -17.1%
25,CC(NC(=O)COC(=O)C(O)(c1ccccc1)c1ccccc1)c1ccccc1 (stereo not given),inactive: 12.8%

# From PubChem BioAssay AID504490 (NMMLSC, 2011)
